Patent US20090016989A1, “ANTIBODIES TO HUMAN SOMATOSTATIN RECEPTOR AND METHODS OF USE” (priority 2007, published 2009)

Chains of the proteins cited; added tags and fusions are not shown. Lines headed by an entry give the natural chain unless they say otherwise; changes in a name come on top.
UniProt P30874: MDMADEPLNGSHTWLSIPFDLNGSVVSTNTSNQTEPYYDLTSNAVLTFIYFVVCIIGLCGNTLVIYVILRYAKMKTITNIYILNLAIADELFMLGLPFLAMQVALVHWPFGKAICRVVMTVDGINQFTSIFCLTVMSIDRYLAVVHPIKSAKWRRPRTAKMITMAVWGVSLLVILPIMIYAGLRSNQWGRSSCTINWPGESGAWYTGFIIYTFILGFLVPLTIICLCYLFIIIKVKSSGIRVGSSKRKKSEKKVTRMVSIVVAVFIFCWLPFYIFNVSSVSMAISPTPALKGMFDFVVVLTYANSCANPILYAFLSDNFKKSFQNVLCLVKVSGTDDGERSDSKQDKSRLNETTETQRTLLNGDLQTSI
UniProt P60041: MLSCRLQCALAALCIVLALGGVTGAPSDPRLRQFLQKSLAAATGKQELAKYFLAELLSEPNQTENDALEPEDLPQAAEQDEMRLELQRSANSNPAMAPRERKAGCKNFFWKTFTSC

Molecular target: human somatostatin receptor (hSSTR) subtype 2 (human) (UniProt P30874)
Experiment: cell-based or functional assay

- growth doubling time of 3T3 Flp-In hSSTR subtype 2 cells (3T3-Control: 31 hours): 42 h
Substance: endogenous mouse SST (from UniProt P60041 103-116) (ligand)
